For the assay, the system named is cancer cell lines. Nature of the assay: In vitro MEK inhibitor drug combinations (Cell Titer Glo, Loewe synergy). The assay is classed as cell-based. As to conditions: combination with I-2; HCA7, HCT-116, SW620, SW48, CACO2, DLD-1, RKO, HT-29; 5 days. The procedure:
Cell viability was determined by Cell Titer Glo assay. […] A normalized Loewe sum of synergy score of >10 was considered synergistic, <10, but >−10 additive, and <−10 antagonistic.

Regarding “Cetuximab: monoclonal antibody to EGFR (ERBITUX), tested in combination with I-2”, the “Loewe Synergy Score > 10” value is listed as 6/8 cell lines.

The record behind these values is patent US20230382863A1, “MEK INHIBITORS AND USES THEREOF” (Ikena Oncology, Inc., priority 2022, published 2023).
